The values below come from ChEMBL document CHEMBL1128907, “Platelet glycoprotein IIbIIIa receptor (GPIIbIIIa) antagonists derived from amidinoindoles” (Bioorg Med Chem Lett, 1996).

The species entered for the assay is Homo sapiens. Description: Functional inhibition of the GPIIb-IIIa receptor was reflected as its ability to antagonize ADP induced platelet aggregation in human platelet-rich plasma. The format is organism-based.

For the compound `N=C(N)NCCC[C@H](N)C(=O)NCC(=O)N[C@@H](CC(=O)O)C(=O)N[C@@H](CO)C(=O)O`, the IC50 is over 100 µM.
